The target in the assay is T1, Aurora-A (Homo sapiens, UniProt O14965).
T1 sequence (O14965 1-403): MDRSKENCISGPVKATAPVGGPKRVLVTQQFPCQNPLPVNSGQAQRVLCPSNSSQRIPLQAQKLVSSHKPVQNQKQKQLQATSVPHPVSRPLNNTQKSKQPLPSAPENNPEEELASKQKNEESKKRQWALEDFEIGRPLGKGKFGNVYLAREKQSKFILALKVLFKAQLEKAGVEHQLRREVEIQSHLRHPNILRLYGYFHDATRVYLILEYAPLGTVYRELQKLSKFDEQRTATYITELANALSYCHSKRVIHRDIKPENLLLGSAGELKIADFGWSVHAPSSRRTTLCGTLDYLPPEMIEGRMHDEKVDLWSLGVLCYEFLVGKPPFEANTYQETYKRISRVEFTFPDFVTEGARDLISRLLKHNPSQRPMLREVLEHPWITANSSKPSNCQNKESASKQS
In words: Flashplate Aurora A enzyme inhibition assay. The assay is classed as biochemical. As for the experimental part: Flashplate® Assay for Identification and Evaluation of Aurora-A Inhibitors
On this assay 384-well Basic Flashplate® (SMP400E, PerkinElmer) as solid assay platform was used. The plates were coated overnight at 4° C. with […] at 100 μg/ml in PBS buffer and used after being washed twice with PBS. 5 μl of compound in 2% DMSO was added to each well followed by 15 μl master mix of kinase buffer (50 mM Tris pH 7.5, 10 mM NaCl, 2.5 mM MgCl2, 1 mM […], 20 μM ATP, and 0.025 μCi/μl ^33P-ATP). Finally, 250 ng per well of Aurora-A enzyme was added. The plate was shaken for approximately 2 min on a flat-bed plate shaker (Wellmix, Denley, UK) and incubated for 2 hours at room temperature. The reaction was stopped by washing the plate twice on a 16-pin wash (ELX50 BioTek Instruments Ltd., Northstar, Bedford, UK) with 10 mM sodium pyrophosphate. The plate was then read on a TopCount-NX™ (PerkinElmer Life Sciences UK Ltd., Hounslow, UK).

In US8088761B2, “Enzyme inhibitors” (Cancer Research Technology Limited, priority 2005, dated 2012) one finds IC50 data, which are given here for 1 compound.

A word on the IC50: it is the concentration at which inhibition is half-maximal.

SMILES strings stand for the structures. Where only a bound is given, the exact number is not on record here.

`COc1ccc(-c2nc3c(N4CCN(Cc5ccc(Cl)cc5)CC4)c(Br)cnc3[nH]2)cc1` [Example 72, 6-Bromo-7-[4-(4-chloro-benzyl)-piperazin-1-yl]-2-(4-methoxy-phenyl)-3H-imidazo[4,5-b]pyridine] returned an IC50 of under 500 nM.
